Source: patent EP4847492A1, “USE OF SALT FORMS OF COMPOUND AND CRYSTAL FORMS THEREOF IN TREATMENT OF HEART FAILURE WITH PRESERVED EJECTION FRACTION” (dated 2026)
Values joined by “and” are separate entries in the source; they are usually repeats but may differ in a detail not shown here. Equal values may be shown once. Where a name gives a salt, the structure may show the parent alone.

What was measured:
Jun = conditions: model treatment group (T-5224) vs model control group; Figure 3D
[1] = Body weight (obesity) of HFpEF model mice; conditions: model treatment group (T-5224); Figure 3C
[2] = Thermal analysis (DSC/TGA), thermal stability
[3] = Crystal form stability under ambient conditions; conditions: approximately 20 to 25 °C, 60% to 75% RH
[4] = Water activity competition experiment, ethanol/water, 5°C and 25°C; conditions: for water activity (a.w.) at which choline salt Form A transforms to choline salt Form B / Form B is thermodynamically more stable: ethanol/water, 5 days
HFpEF animal model = experiment: HFpEF mouse model (HFD + L-NAME), echocardiography and Doppler imaging
[5] = Preliminary physical stability, open storage at 25°C/60% RH and 25°C/80% RH
[6] = Simulated tableting experiment; conditions: 5 minutes; for crystal form transition and crystallinity after tableting: XRPD
[7] = Simulated dry grinding experiment
[8] = Simulated wet granulation experiment
[9] = Pharmacokinetic study, plasma concentration by LC-MS/MS; conditions: Oral administration 12 mg/kg, Balb/c mice, male, fasted
[10] = Solid stability, 25°C/92.5%RH open and 60°C closed, 1 week (XRPD, HPLC, color); parameters: CL (color) / Color: key to the marks not given beside the values; conditions: for Color / Solid (XRPD) / Purity, Solid (HPLC): Solid; for Purity, Solid (HPLC): Initial Purity 98.8%
[11] = Solubility at 37°C in water, buffer and simulated biological fluids (2 h, 24 h)
[12] = AW2, Ethanol/water (86:14,v:v) (a.w.=0.6)
[13] = AW3, Ethanol/water (90:10,v:v) (a.w.=0.5)
[14] = AW4, Ethanol/water (93:7,v:v) (a.w.=0.4)
[15] = AW5, Ethanol/water (95:5,v:v) (a.w.=0.3)
[16] = AW6, Ethanol/water (97:3,v:v) (a.w.=0.2)
[17] = AW7, Ethanol/water (99:1,v:v) (a.w.=0.1)
[18] = GNSE1, Granulation solvent Ethanol
[19] = individual animals, listed as T-5224 choline salt Form B, 12 mg/kg
[20] = mean of 3, listed as T-5224 choline salt Form B, 12 mg/kg

Question: What does the source list for `O=C(O)CCc1cc(C(=O)c2ccc(OC3CCCC3)cc2O)ccc1OCc1ccc2c(O)noc2c1`?
Answer: expression of Jun in mouse cardiomyocytes (Jun): down-regulated; mouse obesity (body weight) [1]: improved; thermal stability, decomposition starting [2]: around 120 °C; crystal form change under ambient conditions [3]: transformed to choline salt Form B after 2 days; XRPD after 5 days at 5°C ([4]; AW1, Water (a.w.=1)): T-5224 Form D, gel-like sample; XRPD after 5 days at 25°C ([4]; AW1, Water (a.w.=1)): T-5224 Form D, gel-like sample; XRPD after 5 days at 5°C [4, 12]: Choline salt Form B; XRPD after 5 days at 25°C [4, 12]: T-5224 Form C with additional diffraction peaks (possibly from T-5224 Form A); XRPD after 5 days at 5°C [4, 13]: Choline salt Form B; XRPD after 5 days at 25°C [4, 13]: T-5224 Form C; XRPD after 5 days at 5°C [4, 14]: Choline salt Form B; XRPD after 5 days at 25°C [4, 14]: T-5224 Form C + Choline salt Form B; XRPD after 5 days at 5°C [4, 15]: Choline salt Form B; XRPD after 5 days at 25°C [4, 15]: Choline salt Form B; XRPD after 5 days at 5°C [4, 16]: Choline salt Form B; XRPD after 5 days at 25°C [4, 16]: Choline salt Form B; XRPD after 5 days at 5°C [4, 17]: Choline salt Form B; XRPD after 5 days at 25°C [4, 17]: Choline salt Form B; XRPD after 5 days at 5°C ([4]; AW8, Ethanol (a.w.=0)): Choline salt Form B; XRPD after 5 days at 25°C ([4]; AW8, Ethanol (a.w.=0)): Choline salt Form B; XRPD after 5 days at 5°C ([4]; AW9, Ethanol/water (80:20,v:v) (a.w.=0.7)): T-5224 Form A + Form C; diastolic function (E/E') (HFpEF animal model; Example A, HFD + 0.5g/L L-NAME mice, T-5224 every other day from 5th to 13th week, 0.8 mg in 1% PVP, total dose 250 mg/kg, followed to 15th week, vs model control): significantly improved; moisture absorption and color change of the solid ([5]; 25°C/60%RH, open storage for 3 days): No significant moisture absorption of the solid; no significant color change.; moisture absorption and color change of the solid ([5]; 25°C/80%RH, open storage for 2 days): No significant moisture absorption of the solid; no significant color change.

Question: What does the source list for `O=C(O)CCc1cc(C(=O)c2ccc(OC3CCCC3)cc2O)ccc1OCc1ccc2c(O)noc2c1` [Choline salt Form B]?
Answer: Remarks (crystallinity) ([6]; CSE1, Pressure 2MPa): No significant change in crystallinity; XRPD ([6]; CSE1, Pressure 2MPa): Choline salt Form B; Remarks (crystallinity) ([6]; CSE2, Pressure 5MPa): Slight decrease in crystallinity; XRPD ([6]; CSE2, Pressure 5MPa): Choline salt Form B; Remarks (crystallinity) ([6]; CSE3, Pressure 10MPa): Slight decrease in crystallinity; XRPD ([6]; CSE3, Pressure 10MPa): Choline salt Form B; crystal form transition and crystallinity after tableting ([6]; tableting (<2 MPa)): no crystal form transition and no significant decrease in crystallinity; crystal form transition and crystallinity after tableting ([6]; tableting pressure 5 to 10 MPa): no crystal form transition, and its crystallinity only slightly decreased; Remarks (crystallinity) ([7]; GSE1, Grinding time 5 min): No significant change in crystallinity; XRPD ([7]; GSE1, Grinding time 5 min): Choline salt Form B; crystal form transition and crystallinity after dry grinding ([7]; manually ground 5 minutes, XRPD): no crystal form transition and no significant decrease in crystallinity; Remarks (crystallinity) [8, 18]: No significant change in crystallinity; XRPD [8, 18]: Choline salt Form B; crystal form transition and crystallinity after wet grinding ([8]; wetted with ethanol, ground, dried 10 minutes, XRPD): no crystal form transition and no significant decrease in crystallinity; Thermal weight loss (TGA) ([2]; @ 140°C): 0.7% @ 140 °C; Tmax ([9]; individual animals): 15 min; AUC0-t [9, 19]: 2935 ng·h/mL and 2416 ng·h/mL and 3039 ng·h/mL; AUC0-∞ [9, 19]: 2941 ng·h/mL and 2421 ng·h/mL and 3051 ng·h/mL; Cl -F [9, 19]: 68.0 mL/min/kg and 82.6 mL/min/kg and 65.6 mL/min/kg; MRT [9, 19]: 47.4 min and 46.2 min and 39 min; T1/2 [9, 19]: 42 min and 45 min and 58.2 min; Vz -F [9, 19]: 4.10 L/kg and 5.39 L/kg and 5.53 L/kg; Tmax, Mean ([9]; mean of 3): 15 min; AUC0-t, Mean [9, 20]: 2797 ng·h/mL; AUC0-∞, Mean [9, 20]: 2804 ng·h/mL; Cl -F, Mean [9, 20]: 72.1 mL/min/kg; Cmax, Mean [9, 20]: 5087 ng/mL; MRT, Mean [9, 20]: 44.4 min; T1/2, Mean [9, 20]: 48.6 min; Vz -F, Mean [9, 20]: 5.01 L/kg; water activity (a.w.) at which choline salt Form A transforms to choline salt Form B / Form B is thermodynamically more stable ([4]; 5°C): ≤ 0.6; water activity (a.w.) at which choline salt Form A transforms to choline salt Form B / Form B is thermodynamically more stable ([4]; 25°C): ≤ 0.3; diastolic function (E/E') (HFpEF animal model; Example 6, 3 mg/kg per administration, every other day, 0.5% PVP, 3 weeks after administration, Figure 73): significantly improved; physical and chemical stability ([10]; 25°C/92.5%RH open and 60°C closed, summary statement): good physical and chemical stability; Color ([10]; 25°C/92.5%RH, open containers): A; Solid (XRPD) ([10]; 25°C/92.5%RH, open containers): Choline salt Form B; Purity, Solid (HPLC) ([10]; 25°C/92.5%RH, open containers): 98.8%; Color ([10]; 60°C, closed containers): A; Solid (XRPD) ([10]; 60°C, closed containers): Choline salt Form B; Purity, Solid (HPLC) ([10]; 60°C, closed containers): 98.8%; pH of the supernatant 24h ([11]; FaSSGF, pH 1.6, 37°C): 1.6; pH of the supernatant 24h ([11]; FaSSIF-v1, pH 6.5, 37°C): 6.7; pH of the supernatant 24h ([11]; FeSSIF-v1, pH 5.0, 37°C): 5.0; pH of the supernatant 24h ([11]; Water, 37°C): 7.7
